# In publication PMC3335988 (Neurochemistry international, 2011):
# Sequences of proteins named here, by UniProt entry; tags and fusion partners are left off. Residues count along the entry.
# UniProt Q00959, 23-1464: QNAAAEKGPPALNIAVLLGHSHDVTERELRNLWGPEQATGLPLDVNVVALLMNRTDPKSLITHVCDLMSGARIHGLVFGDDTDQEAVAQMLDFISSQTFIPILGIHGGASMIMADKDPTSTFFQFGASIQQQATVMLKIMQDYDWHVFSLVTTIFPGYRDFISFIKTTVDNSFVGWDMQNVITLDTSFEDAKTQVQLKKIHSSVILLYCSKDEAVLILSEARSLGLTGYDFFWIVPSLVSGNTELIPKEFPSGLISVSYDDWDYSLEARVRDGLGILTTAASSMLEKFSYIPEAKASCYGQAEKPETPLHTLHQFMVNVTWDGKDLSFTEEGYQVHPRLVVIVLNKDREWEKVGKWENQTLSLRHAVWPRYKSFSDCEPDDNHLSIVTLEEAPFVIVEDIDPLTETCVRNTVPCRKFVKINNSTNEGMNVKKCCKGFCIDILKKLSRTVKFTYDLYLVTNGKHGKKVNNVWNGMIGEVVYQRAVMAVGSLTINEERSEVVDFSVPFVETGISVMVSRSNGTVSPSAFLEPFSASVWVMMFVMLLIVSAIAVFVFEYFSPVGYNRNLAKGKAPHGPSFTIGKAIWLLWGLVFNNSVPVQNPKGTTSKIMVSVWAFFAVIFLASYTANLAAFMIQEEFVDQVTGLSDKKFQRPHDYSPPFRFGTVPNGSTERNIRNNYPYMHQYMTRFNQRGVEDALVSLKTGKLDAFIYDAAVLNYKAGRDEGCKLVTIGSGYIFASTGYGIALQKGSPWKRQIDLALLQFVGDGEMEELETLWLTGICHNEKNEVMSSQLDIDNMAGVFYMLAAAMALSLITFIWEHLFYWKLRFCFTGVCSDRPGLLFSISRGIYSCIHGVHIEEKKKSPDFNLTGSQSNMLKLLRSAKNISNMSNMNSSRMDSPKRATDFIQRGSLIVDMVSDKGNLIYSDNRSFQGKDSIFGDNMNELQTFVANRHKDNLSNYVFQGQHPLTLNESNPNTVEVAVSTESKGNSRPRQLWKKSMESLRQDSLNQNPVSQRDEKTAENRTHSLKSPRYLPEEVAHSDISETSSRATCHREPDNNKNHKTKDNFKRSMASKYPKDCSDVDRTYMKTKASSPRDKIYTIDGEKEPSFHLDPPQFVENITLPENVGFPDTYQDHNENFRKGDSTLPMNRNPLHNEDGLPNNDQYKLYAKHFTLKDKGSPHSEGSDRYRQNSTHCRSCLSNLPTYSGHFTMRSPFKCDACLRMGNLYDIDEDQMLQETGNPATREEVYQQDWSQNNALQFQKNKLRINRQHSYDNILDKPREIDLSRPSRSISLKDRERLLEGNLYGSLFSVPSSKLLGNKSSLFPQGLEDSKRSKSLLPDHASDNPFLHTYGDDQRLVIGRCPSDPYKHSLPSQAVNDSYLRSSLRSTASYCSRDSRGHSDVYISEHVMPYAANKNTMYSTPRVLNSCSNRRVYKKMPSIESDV
# UniProt Q00960, 27-1482: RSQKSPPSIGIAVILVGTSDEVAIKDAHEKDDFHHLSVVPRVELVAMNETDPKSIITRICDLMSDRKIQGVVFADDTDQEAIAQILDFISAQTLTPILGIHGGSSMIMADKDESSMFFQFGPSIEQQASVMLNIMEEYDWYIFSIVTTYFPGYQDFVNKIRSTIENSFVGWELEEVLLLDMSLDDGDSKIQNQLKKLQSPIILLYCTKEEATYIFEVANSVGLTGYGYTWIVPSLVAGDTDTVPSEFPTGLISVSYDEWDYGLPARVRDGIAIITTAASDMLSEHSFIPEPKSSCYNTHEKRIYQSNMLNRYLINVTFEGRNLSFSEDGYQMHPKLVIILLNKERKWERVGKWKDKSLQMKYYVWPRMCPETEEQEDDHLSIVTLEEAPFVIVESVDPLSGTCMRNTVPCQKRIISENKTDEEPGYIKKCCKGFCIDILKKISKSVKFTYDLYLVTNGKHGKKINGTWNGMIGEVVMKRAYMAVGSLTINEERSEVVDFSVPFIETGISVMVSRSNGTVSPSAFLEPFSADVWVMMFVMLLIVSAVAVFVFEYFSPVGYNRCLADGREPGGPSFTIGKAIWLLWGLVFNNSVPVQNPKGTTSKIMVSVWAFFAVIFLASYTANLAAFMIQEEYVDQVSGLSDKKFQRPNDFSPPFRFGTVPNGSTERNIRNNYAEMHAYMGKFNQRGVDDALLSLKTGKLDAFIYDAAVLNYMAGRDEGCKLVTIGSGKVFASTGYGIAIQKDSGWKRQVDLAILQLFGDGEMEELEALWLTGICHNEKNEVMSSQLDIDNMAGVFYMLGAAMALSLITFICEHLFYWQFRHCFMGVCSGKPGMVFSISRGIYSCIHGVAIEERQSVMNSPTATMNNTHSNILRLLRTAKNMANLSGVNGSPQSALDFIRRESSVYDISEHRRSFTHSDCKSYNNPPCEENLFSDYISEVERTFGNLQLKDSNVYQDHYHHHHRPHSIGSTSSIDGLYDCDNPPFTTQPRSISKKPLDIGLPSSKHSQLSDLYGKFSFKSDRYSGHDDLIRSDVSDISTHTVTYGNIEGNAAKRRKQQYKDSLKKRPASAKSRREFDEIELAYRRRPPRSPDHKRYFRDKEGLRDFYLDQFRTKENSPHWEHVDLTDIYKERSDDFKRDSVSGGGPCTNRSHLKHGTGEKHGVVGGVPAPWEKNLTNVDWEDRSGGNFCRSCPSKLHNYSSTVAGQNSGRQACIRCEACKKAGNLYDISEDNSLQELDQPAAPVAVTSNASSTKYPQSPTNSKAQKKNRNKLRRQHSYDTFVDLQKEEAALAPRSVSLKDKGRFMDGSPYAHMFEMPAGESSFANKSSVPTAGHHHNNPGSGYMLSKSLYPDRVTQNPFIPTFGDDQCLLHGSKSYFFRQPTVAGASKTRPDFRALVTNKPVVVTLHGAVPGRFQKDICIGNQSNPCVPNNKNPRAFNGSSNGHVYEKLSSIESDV
# UniProt Q62645, 28-1323: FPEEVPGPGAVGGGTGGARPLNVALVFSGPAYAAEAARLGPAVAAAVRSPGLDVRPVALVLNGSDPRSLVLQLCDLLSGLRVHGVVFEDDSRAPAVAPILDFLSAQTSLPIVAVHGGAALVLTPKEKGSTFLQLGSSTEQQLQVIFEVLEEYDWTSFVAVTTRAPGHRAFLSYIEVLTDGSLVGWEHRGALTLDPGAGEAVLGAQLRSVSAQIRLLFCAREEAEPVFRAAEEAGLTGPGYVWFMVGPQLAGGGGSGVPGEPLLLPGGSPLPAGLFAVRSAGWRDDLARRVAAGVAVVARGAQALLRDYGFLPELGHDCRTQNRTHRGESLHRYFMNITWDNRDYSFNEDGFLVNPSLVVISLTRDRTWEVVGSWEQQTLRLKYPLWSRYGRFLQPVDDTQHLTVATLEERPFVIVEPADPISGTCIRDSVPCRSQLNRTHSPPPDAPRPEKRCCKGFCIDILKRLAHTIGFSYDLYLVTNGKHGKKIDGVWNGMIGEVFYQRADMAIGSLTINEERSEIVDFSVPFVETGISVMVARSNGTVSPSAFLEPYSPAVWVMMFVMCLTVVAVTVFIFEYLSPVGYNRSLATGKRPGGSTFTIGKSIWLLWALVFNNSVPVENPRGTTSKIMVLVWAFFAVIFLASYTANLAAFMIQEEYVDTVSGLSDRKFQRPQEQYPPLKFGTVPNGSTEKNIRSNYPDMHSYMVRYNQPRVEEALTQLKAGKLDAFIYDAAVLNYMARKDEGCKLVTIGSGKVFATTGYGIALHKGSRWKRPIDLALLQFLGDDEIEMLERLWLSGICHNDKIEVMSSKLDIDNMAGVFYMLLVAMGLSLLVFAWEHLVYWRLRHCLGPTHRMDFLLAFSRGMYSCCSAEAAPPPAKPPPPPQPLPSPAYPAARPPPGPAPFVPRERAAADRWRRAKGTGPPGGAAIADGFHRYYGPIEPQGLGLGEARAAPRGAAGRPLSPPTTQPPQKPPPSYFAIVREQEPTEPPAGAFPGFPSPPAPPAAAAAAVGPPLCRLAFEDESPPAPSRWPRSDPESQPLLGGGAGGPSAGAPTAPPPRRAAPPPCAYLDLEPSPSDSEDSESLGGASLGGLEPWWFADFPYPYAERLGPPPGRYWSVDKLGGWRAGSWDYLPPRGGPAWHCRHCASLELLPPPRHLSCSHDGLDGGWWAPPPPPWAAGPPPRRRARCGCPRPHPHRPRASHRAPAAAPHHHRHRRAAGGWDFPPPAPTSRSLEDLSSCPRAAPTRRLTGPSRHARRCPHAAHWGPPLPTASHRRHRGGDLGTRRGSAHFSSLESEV
# UniProt Q00961, 20-1237: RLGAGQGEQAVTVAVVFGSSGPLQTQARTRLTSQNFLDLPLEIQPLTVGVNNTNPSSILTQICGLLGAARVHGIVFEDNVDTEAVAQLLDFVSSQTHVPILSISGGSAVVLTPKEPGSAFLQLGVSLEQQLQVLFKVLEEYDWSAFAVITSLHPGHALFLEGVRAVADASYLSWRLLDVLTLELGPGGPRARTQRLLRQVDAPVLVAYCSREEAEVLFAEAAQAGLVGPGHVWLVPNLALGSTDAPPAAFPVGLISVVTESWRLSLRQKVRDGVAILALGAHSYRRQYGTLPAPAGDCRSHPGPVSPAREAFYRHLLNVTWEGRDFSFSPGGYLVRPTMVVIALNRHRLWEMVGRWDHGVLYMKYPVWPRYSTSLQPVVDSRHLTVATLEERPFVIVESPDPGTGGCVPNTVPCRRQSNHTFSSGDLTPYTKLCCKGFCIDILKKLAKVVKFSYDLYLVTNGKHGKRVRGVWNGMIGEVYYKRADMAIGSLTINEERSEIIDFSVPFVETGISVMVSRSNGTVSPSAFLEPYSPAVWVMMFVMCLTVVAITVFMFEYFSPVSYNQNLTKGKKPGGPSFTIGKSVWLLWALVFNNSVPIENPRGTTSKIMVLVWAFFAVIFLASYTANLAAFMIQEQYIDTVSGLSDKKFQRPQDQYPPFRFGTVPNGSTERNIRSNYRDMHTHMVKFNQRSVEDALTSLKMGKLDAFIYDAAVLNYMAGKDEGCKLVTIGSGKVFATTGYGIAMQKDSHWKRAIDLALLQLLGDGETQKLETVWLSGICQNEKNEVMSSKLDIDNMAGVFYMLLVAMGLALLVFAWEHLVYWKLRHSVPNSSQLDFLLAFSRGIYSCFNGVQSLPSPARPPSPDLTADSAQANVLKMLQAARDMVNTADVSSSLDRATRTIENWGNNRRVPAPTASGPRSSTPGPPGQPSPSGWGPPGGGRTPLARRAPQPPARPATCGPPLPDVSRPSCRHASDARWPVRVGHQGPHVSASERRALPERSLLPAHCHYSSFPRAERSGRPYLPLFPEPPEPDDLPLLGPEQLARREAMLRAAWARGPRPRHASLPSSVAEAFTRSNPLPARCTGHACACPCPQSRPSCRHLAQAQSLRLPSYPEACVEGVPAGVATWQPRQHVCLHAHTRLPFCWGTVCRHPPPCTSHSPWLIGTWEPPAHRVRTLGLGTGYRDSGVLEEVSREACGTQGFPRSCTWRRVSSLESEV
# Tests used:
# Assay type in all cases: cell-based
# Details in all cases: 100 µM glutamate
# rat GluN1/GluN2A = rat GluN1/GluN2A (Rattus norvegicus, UniProt P35439+Q00959); experiment: Two-electrode voltage-clamp recordings, recombinant receptors in Xenopus oocytes
# rat GluN1/GluN2B = rat GluN1/GluN2B (Rattus norvegicus, UniProt P35439+Q00960)
# rat GluN1/GluN2D = rat GluN1/GluN2D (Rattus norvegicus, UniProt P35439+Q62645)
# rat GluN1/GluN2C = rat GluN1/GluN2C (Rattus norvegicus, UniProt P35439+Q00961)
compound,measurement,setting,value
NCC(=O)O [glycine],nH (Hill slope),rat GluN1/GluN2A,1.2
same,nH (Hill slope),rat GluN1/GluN2B,1.8
same,nH (Hill slope),rat GluN1/GluN2D,1.6
same,nH (Hill slope),rat GluN1/GluN2C,1.5
